In ChEMBL document CHEMBL4330111, “Optimization of N-benzyl-5-nitrofuran-2-carboxamide as an antitubercular agent” (Bioorg Med Chem Lett, 2019):

Assay: in vitro
Details: monkey, Vero cells

O=C(NCc1ccccc1)c1ccc([N+](=O)[O-])o1
selectivity ratio: 33
